Assay: Clinical trial: single bolus (Cohort 4) versus fractionated dose (Cohort 5), adverse events and efficacy
Format: in vivo, human
Conditions: second row of Table 2, fractionated dose (Cohort 5 per text)
Description: However even though more drug was provided to the patient the average grade of adverse events reduced and the median grade remained the same. […] Median overall survival increased from 6.5 months (bolus dose) to 7.4 months (fractionated dose) with assessment of the median overall survival in the fractionated dose group still ongoing. Average progression free survival increased from 2.8 to 2.9 months, respectively, again with assessment ongoing in the fractionated dose group. Average reduction in surrogate markers of efficacy were greater between the cohorts with patients receiving a single bolus dose experience on average a 29% reduction in surrogate markers versus an average 40% reduction for those receiving a fractionated dose.
Dosing is based upon body surface area or BSA in millicuries/meter squared (mCi/m^2). Patients either received a single 30 minute infusion of 31.25 mCi/m^2 on day 1 or a 30 minute fractionated infusion dose of 15.625 mCi/m^2 on day 1 and then repeated on day 8.

^131I-labeled 18-(p-iodo-phenyl)octadecyl phosphocholine [CLR 131]
Adverse Events Average Grade: 2.95 ± 1.10

From patent publication US20210106700A1, “Fractionated Dosing of a Phospholipid Ether Analog for the Treatment of Cancer” (Cellectar Biosciences, Inc., priority 2018, published 2021)
